Experimental data from ChEMBL document CHEMBL6096705, “Identification of a Chemical Probe for BLT2 Activation by Scaffold Hopping” (J Med Chem, 2025).
The source made the active and inactive calls. The rule behind the calls is not given here.

Legend:
[1] = molecular target: T1, Type-1 angiotensin II receptor (Homo sapiens, UniProt P30556); experiment: Antagonist activity at human AT1 receptor expressed in CHO-K1 cells co-expressing GNA14 assessed as inhibition of Val5-Angiotensin-II induced IP-1 accumulation incubated for 90 mins by HTRF assay; assay type: cell-based
[2] = molecular target: T1, Type-1 angiotensin II receptor; experiment: Agonist activity at human AT1 receptor expressed in CHO-K1 cells co-expressing GNA14 assessed as IP-1 accumulation incubated for 90 mins by HTRF assay; assay type: functional, cell-based

Row | SMILES | Activity [1] | Activity [2]
1 | CCCCn1c(=O)n(Cc2ccc(-c3ccccc3C(=O)O)cc2)c2ccccc21 | inactive | –
2 | CCCn1c(=O)n(-c2ccccc2)c2cc(-c3ccccc3C(=O)O)ccc21 | inactive | –
3 | CCCn1c(=O)n(Cc2ccccc2)c2cc(-c3ccccc3C(=O)O)ccc21 | inactive | –

Further lines, results first:

Row | Activity [1] | Activity [2] | SMILES
4 | inactive | inactive | CCCCC(=O)N1CC2(C1)CN(c1ccccc1-c1nnn[nH]1)C2
5 | inactive | – | CCCCC(=O)N1Cc2ccc(-c3ccccc3C(=O)O)cc2C1
6 | inactive | inactive | CCCCC(=O)N1CC2(CCN(c3ccccc3-c3nnn[nH]3)CC2)C1
